Test system: sEH
Assay: oxylipin analysis, epoxide/diol ratios (target engagement)
Format: in vivo, pig
Parameters: 12,13-DiHOME / 9(10)-EpOME / 12(13)-EpOME: unit not given here
Settings: 6 hours

CCOCCOCCOCCCCCNC(=O)NC12CC3CC(CC(C3)C1)C2 [Compound 950]
9(10)-EpOME (AEPU group, mean (SD)): 1.47 (1.12) nM
9,10-DiHOME (AEPU group, mean (SD)): 5.21 (3.00) nM
12(13)-EpOME (AEPU group, mean (SD)): 5.12 (4.71) nM
12,13-DiHOME (AEPU group, mean (SD)): 17.24 (10.55) nM
15(16)-EpODE (AEPU group, mean (SD)): 26.10 (27.79) nM
15,16-DiHODE (AEPU group, mean (SD)): 38.08 (23.02) nM
Hedges’ G (95% CI), 9(10)-EpOME (AEPU vs placebo): 0.86 (−0.06–1.76)
Hedges’ G (95% CI), 12(13)-EpOME (AEPU vs placebo): 1.06 (0.12–1.98)
Hedges’ G (95% CI), 15(16)-EpODE (AEPU vs placebo): 0.49 (−0.40–1.36)
Hedges’ G (95% CI), 15,16-DiHODE (AEPU vs placebo): 0.23 (−0.64–1.09)
